The values below come from ChEMBL document CHEMBL1142270, “Synthesis, thermal stability, antimalarial activity of symmetrically and asymmetrically substituted tetraoxanes” (Bioorg Med Chem Lett, 2008).

In this data set the test system is Vero. Kind of data set: Cytotoxicity against african green monkey Vero cells by neutral red assay upto 16.72 uM. It counts as cell-based. To be noted: chlorocebus sabaeus.

As to `c1ccc(C2OOC3(CCCC3)OO2)cc1`, the Activity result is recorded as “Non-toxic”.
